{"sequences": {"note": "Chains of the proteins cited; added tags and fusions are not shown.", "UniProt O08537, whole entry": "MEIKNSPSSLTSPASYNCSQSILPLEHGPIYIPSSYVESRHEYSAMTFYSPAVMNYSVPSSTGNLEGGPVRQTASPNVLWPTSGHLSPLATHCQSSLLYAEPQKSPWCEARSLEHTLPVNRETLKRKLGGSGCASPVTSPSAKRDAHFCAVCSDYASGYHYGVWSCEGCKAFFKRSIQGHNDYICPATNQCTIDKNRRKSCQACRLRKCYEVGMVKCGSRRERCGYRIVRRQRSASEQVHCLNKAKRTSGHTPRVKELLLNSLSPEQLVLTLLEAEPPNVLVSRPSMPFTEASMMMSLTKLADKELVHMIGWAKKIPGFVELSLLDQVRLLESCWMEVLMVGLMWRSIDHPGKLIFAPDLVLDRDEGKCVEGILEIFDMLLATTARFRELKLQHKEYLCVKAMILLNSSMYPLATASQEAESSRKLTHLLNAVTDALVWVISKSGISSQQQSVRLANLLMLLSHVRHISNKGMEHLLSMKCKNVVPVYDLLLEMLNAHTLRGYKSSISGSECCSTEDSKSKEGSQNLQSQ", "UniProt Q92731, whole entry": "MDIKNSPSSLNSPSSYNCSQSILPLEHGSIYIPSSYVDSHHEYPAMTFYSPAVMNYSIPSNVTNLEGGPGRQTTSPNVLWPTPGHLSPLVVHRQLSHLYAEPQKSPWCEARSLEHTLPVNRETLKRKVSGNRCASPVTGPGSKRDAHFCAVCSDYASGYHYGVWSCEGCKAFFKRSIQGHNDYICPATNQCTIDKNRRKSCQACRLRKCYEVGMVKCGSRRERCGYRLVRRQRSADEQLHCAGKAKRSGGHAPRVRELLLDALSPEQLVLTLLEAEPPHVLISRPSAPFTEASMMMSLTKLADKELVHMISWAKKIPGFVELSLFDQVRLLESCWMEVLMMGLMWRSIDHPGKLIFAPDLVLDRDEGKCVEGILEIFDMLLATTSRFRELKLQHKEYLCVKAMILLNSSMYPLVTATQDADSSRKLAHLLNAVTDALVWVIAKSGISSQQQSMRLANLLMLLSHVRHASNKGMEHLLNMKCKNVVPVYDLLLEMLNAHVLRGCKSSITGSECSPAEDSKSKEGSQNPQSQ", "UniProt P03372, whole entry": "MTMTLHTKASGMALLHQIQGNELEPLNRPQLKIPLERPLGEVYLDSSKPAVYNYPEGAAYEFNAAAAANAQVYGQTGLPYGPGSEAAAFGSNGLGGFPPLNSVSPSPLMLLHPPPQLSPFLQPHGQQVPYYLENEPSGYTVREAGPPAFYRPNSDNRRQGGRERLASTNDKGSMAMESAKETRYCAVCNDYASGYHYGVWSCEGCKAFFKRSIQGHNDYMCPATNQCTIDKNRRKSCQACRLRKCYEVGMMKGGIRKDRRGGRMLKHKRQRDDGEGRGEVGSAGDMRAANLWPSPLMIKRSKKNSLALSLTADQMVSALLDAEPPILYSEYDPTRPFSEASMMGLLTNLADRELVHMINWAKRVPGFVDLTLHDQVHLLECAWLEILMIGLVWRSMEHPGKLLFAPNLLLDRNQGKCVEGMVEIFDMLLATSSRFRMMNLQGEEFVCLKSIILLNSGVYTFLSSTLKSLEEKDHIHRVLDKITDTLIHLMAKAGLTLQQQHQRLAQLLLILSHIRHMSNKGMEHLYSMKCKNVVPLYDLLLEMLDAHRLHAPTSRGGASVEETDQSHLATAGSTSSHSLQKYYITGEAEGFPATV", "UniProt P19785, whole entry": "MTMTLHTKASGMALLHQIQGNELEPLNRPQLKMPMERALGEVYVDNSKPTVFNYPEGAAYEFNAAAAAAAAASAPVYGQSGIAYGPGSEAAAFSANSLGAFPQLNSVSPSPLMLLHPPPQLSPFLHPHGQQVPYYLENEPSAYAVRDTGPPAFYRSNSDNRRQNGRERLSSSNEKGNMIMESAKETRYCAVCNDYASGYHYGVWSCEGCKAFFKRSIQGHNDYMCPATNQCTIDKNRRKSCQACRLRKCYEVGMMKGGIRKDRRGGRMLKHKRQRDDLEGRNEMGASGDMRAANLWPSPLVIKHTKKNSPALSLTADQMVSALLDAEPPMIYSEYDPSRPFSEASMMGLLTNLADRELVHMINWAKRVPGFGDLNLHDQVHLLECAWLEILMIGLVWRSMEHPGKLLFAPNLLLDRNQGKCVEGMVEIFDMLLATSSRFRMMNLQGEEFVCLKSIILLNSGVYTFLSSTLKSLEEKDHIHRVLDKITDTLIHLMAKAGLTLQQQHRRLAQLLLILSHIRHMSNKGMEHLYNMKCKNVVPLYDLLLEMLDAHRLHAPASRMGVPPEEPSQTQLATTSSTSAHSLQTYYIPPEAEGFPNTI"}, "source": "patent US20250188098A1", "about": "“CARBORANE COMPOUNDS AND METHODS OF USE THEREOF” (Ohio State Innovation Foundation, priority 2023, published 2025)", "key": {"[1]": {"experiment": "Simulated pharmacokinetics at uterotrophic ED50 dose"}, "[2]": {"experiment": "Mouse PO pharmacokinetic study", "conditions": "absolute bioavailability"}, "[3]": {"molecular_target": "mouse ERβ (Mus musculus, UniProt O08537)", "experiment": "ER luciferase transcriptional activation assay in transfected HEK-293 cells, mERβ", "conditions": "read-out: mERβ EC50, nM (95% CI)"}, "[4]": {"molecular_target": "T1, ERβ (Homo sapiens, UniProt Q92731)", "experiment": "ER luciferase transcriptional activation assay in transfected HEK-293 cells, hERβ", "conditions": "read-out: hERβ EC50, nM (95% CI)"}, "[5]": {"molecular_target": "T2, hERα (Homo sapiens, UniProt P03372)", "experiment": "ER luciferase transcriptional activation assay in transfected HEK-293 cells, hERα", "format": "cell-based", "parameters": "expressed in transfected cells; host or cells: HEK-293 (CRL-1573, ATCC), transient transfection with pcDNA3-hERα and pGL4.26-3×ERE", "conditions": "transactivation"}, "[6]": {"molecular_target": "mouse ERα (Mus musculus, UniProt P19785)", "experiment": "ER luciferase transcriptional activation assay in transfected HEK-293 cells, mERα", "conditions": "read-out: mERα EC50, nM (95% CI), transactivation"}, "[7]": {"molecular_target": "T1, ERβ", "experiment": "Estrogen receptor radioligand binding assay, hERβ", "parameters": "expressed in transfected cells", "method": "Estrogen Receptor Radio Ligand Binding Assays. […] Briefly, ERα and ERβ were obtained from recombinant insect Sf9 cells overexpressing either human receptor. [^3H] Estradiol (0.5 nM) and Diethylstilbestrol (1 μM) were used as radio-ligand and ER binding ligand positive controls, respectively. To determine the IC50, each analog was tested at several concentrations depending on the receptor being challenged. The test concentrations ranged from 1 pM-10 μM for ERβ, and 10 pM-100 μM for ERα and were performed in duplicate. The IC50 values were determined by non-linear least squares regression analysis using MathIQ™ (ID Business Solutions Ltd., UK). […] The Hill coefficients of the competition curves were calculated using MathIQ™."}, "[8]": {"molecular_target": "T2, hERα", "experiment": "Estrogen receptor radioligand binding assay, hERα", "conditions": "[3H]estradiol competition, recombinant human receptor from Sf9 cells"}, "[9]": {"conditions": "simulated at uterotrophic ED50 oral dose"}}, "note": "Where “and” joins values, the source holds several entries; their conditions need not be identical. Equal values may be shown once. Read-outs that look alike come from different tables or passages of the source.", "data": [{"substance": "1-(4-hydroxyphenyl)-12-((2-(2-hydroxyethoxy)ethyl)thio)-1,12-dicarbaclosododecaborane [Compound 3]", "values": [{"measurement": "Uterotrophic ED50 AUC0-24hr", "setting": "[1]; [9]", "result": "1 µM·h and 1.0 µM·h"}, {"measurement": "F (%)", "setting": "[2]; PO 3 mg/kg", "result": 11.9, "unit": "%"}]}, {"substance": "1-(4-hydroxyphenyl)-12-(3-phenylpropyl)-1,12-dicarba-closododecaborane [Compound 4]", "values": [{"measurement": "EC50", "setting": "[3]; transactivation, HEK-293", "result": 70.4, "unit": "nM"}, {"measurement": "EC50", "setting": "[4]; transactivation, HEK-293", "result": 97.2, "unit": "nM"}, {"measurement": "EC50", "setting": "[5]; read-out: hERα EC50, nM (95% CI), HEK-293", "result": "> 10000", "unit": "nM"}, {"measurement": "EC50", "setting": "[5]; read-out: hERα EC50, μM (95% CI), as listed in Tables 7A/7B", "result": "> 30000", "unit": "nM"}, {"measurement": "EC50", "setting": "[6]", "result": 124, "unit": "nM"}, {"measurement": "Ki", "setting": "[7]; [3H]estradiol competition, recombinant human receptor from Sf9 cells", "result": 0.0127, "unit": "µM"}, {"measurement": "Ki", "setting": "[8]", "result": 0.022, "unit": "µM"}]}, {"substance": "1-(4-hydroxyphenyl)-7-(methylthio)-1,7-dicarba-closododecaborane [Compound 10]", "values": [{"measurement": "Uterotrophic ED50 AUC0-24hr", "setting": "[1]", "result": 1.4, "unit": "µM·h"}, {"measurement": "Uterotrophic ED50 Cmax", "setting": "[1]", "result": 0.9, "unit": "µM"}, {"measurement": "Uterotrophic ED50 AUC0-24hr", "setting": "[1]; [9]", "result": 1.4, "unit": "µM·h"}]}, {"substance": "1-(4-hydroxyphenyl)-12-(hexylthio)-1,12-dicarba-closododecaborane [Compound 2]", "values": [{"measurement": "Uterotrophic ED50 AUC0-24hr", "setting": "[1]; [9]", "result": 11, "unit": "µM·h"}, {"measurement": "Uterotrophic ED50 Cmax", "setting": "[1]; [9]", "result": 0.8, "unit": "µM"}, {"measurement": "F (%)", "setting": "[2]; PO 10 mg/kg", "result": 41.7, "unit": "%"}]}, {"substance": "1-(4-hydroxyphenyl)-7-(propylthio)-1,7-dicarba-closododecaborane [Compound 7]", "values": [{"measurement": "Uterotrophic ED50 AUC0-24hr", "setting": "[1]; [9]", "result": 2.4, "unit": "µM·h"}, {"measurement": "Uterotrophic ED50 Cmax", "setting": "[1]; [9]", "result": 1.5, "unit": "µM"}, {"measurement": "F (%)", "setting": "[2]; PO 10 mg/kg", "result": 5.5, "unit": "%"}]}, {"substance": "1-(4-hydroxyphenyl)-7-((2-hydroxyethyl)thio)-1,7-dicarba-closododecaborane [Compound 8]", "values": [{"measurement": "EC50", "setting": "[3]", "result": 1, "unit": "nM"}, {"measurement": "Uterotrophic ED50 AUC0-24hr", "setting": "[1]; [9]", "result": ">5.2", "unit": "µM·h"}, {"measurement": "Uterotrophic ED50 Cmax", "setting": "[1]; [9]", "result": ">1.5 µM and 1.5 µM"}, {"measurement": "EC50", "setting": "[4]", "result": 44.9, "unit": "nM"}, {"measurement": "Ki", "setting": "[7]", "result": 0.0005, "unit": "µM"}, {"measurement": "F (%)", "setting": "[2]; PO 100 mg/kg", "result": 1.2, "unit": "%"}]}, {"substance": "1-(4-hydroxyphenyl)-12-(phenethylthio)-1,12-dicarba-closododecaborane [Compound 5]", "values": [{"measurement": "Uterotrophic ED50 AUC0-24hr", "setting": "[1]; [9]", "result": 2.3, "unit": "µM·h"}, {"measurement": "Uterotrophic ED50 Cmax", "setting": "[1]; [9]", "result": 0.3, "unit": "µM"}, {"measurement": "F (%)", "setting": "[2]; PO 10 mg/kg", "result": 13.5, "unit": "%"}]}]}
